From patent US20070141203A1, “Beverages containing water-soluble vitamin E” (priority 2003, published 2007)

How the values were obtained:
[1] = Turbidity of aqueous dispersions and solutions of vitamin E-containing components in demineralized water (Hach turbidimeter Model Ratio/XR); format: physicochemical; settings: for Turbidity (Initially doped water): initial; for Turbidity (6 wks after doping): six weeks at ambient temperature
Method: Preparation of aqueous dispersions and solutions of vitamin E-containing components.
(§1) Sample 1: Vitamin E oil (0.15 g) was added to 1000 g of demineralized water. The mixture was homogenized for approximately 60 minutes using a Gifford-Wood homogenizer, Model 1 L form Greerco Corporation. The sample was very cloudy. The turbidity of the sample was measured using a Hach turbidimeter Model Ratio/XR. The turbidity of the demineralized water was also measured prior to addition of the vitamin E. The sample was stored at ambient temperature for six weeks. […] The sample was shaken well and the turbidity measured.
(§2) Sample 2: Vitamin E acetate oil (0.25 g) from Sigma-Aldrich was added to 1681 g of demineralized water. […] The turbidity of the dispersion was measured and then again after storage for six weeks at ambient temperature.
(§3) Sample 3: Vitamin E succinate powder (0.27 g) from Sigma-Aldrich was added to 1792 g of demineralized water. The mixture was homogenized for approximately 60 minutes. […] The turbidity of the dispersion was measured and then again after storage for six weeks at ambient temperature.
(§4) Sample 4: To 1988 g of demineralized water was added 1.49 g of a 20% solution by weight of Eastman Vitamin E TPGS™ in water prepared according to the method described in Example 1. This solution was stirred at ambient temperature using a magnetic stirrer for several minutes. […] The turbidity of the solution was measured and then measured again after storage at ambient temperature for six weeks.
as §4, with “5:” for “4:”, “1777” for “1988”, “16.0” for “1.49”
(§5) Sample 6: To 1790 g of demineralized water was added 0.27 g of a mixture consisting of d,l-α-tocopheryl acetate, modified food starch, and silica. This product is commercially available from Roche Vitamins, Inc., under the name “Dry Vitamin E 15% CC”. The aqueous mixture was agitated for about thirty minutes using a magnetic stirrer. […] The turbidity of the solution was measured and then re-measured after storage for six weeks at ambient temperature.
(§6) Sample 7: To 1802 g of demineralized water was added 0.27 g of a mixture consisting of d-α-tocopheryl acetate, Polysorbate 60, and ethyl alcohol. This product is commercially available from ADM under the name “E 230 Clear®”. The mixture was agitated for about ten minutes using a magnetic stirrer. […] The turbidity of the solution was measured and then re-measured after storage for six weeks at ambient temperature.

[2] = Visual appearance / dissolution of vitamin E-containing components in demineralized water, on preparation and during storage; format: physicochemical; settings: for Appearance during / after storage: six weeks at ambient temperature
Method: as §1, §2, §3, §4
as §4, with “5:” for “4:”, “1777” for “1988”, “16.0” for “1.49”
as §5, §6

[3] = for Turbidity (Initially doped beverage): immediately after addition
[4] = cited from earlier work
[5] = normal conditions; cited from earlier work
[6] = individuals or animals having difficulties absorbing naturally occurring, fat-soluble vitamin E; cited from earlier work
[7] = 150 +/- 5 ppm in demineralized water
[8] = 1800 +/- 5 ppm in demineralized water
[9] = Demineralized water, 151 ppm TPGS
[10] = Evian Natural Spring Water, 1800 ppm TPGS
[11] = Fanta Strawberry, 1500 ppm TPGS
[12] = Hansen's Energy Water - Lemon, 1500 ppm TPGS
[13] = Motts Apple Juice, 1400 ppm TPGS
[14] = Mountain Lightening, 1400 ppm TPGS
[15] = Ocean Spray White Cranberry, 1500 ppm TPGS
[16] = Sam's Choice - Raspberry, 1500 ppm TPGS
[17] = Twister - Kiwi/Strawberry, 1500 ppm TPGS

d-α-Tocopherol polyethylene glycol 1000 succinate [Vitamin E TPGS™]
Turbidity (Initially doped water) [1, 7]: 0.05 NTU | Turbidity (6 wks after doping) [1, 7]: 0.05 NTU | Turbidity (Initially doped water) [1, 8]: 0.1 NTU | Turbidity (6 wks after doping) [1, 8]: 0.42 NTU | Appearance / dissolution on preparation ([2]; about 150 ppm in demineralized water, after homogenizing or stirring): dissolved almost immediately | Appearance during / after storage ([2]; about 150 ppm in demineralized water): No solids or immiscible liquids appeared during storage | Appearance / dissolution on preparation ([2]; about 1800 ppm in demineralized water, after stirring): dissolved almost immediately | Appearance during / after storage ([2]; about 1800 ppm in demineralized water): No solids or immiscible liquids appeared during storage | Turbidity (Initially doped beverage) [3, 9]: 0.05 NTU | Turbidity (six weeks after doping) [3, 9]: 0.05 NTU | Turbidity (Initially doped beverage) ([3]; Diet Snapple, 1500 ppm TPGS): 2.7 NTU | Turbidity (six weeks after doping) ([3]; Diet Snapple, 1500 ppm TPGS): 3.1 NTU | Turbidity (Initially doped beverage) [3, 10]: 0.45 NTU | Turbidity (six weeks after doping) [3, 10]: 0.55 NTU | Turbidity (Initially doped beverage) [3, 11]: 0.4 NTU | Turbidity (six weeks after doping) [3, 11]: 0.5 NTU | Turbidity (Initially doped beverage) [3, 12]: 0.72 NTU | Turbidity (six weeks after doping) [3, 12]: 0.91 NTU | Turbidity (Initially doped beverage) [3, 13]: 1.4 NTU | Turbidity (six weeks after doping) [3, 13]: 2.2 NTU | Turbidity (Initially doped beverage) [3, 14]: 3.6 NTU | Turbidity (six weeks after doping) [3, 14]: 4.1 NTU | Turbidity (Initially doped beverage) [3, 15]: 4.9 NTU | Turbidity (six weeks after doping) [3, 15]: 5.8 NTU | Turbidity (Initially doped beverage) [3, 16]: 0.39 NTU | Turbidity (six weeks after doping) [3, 16]: 0.46 NTU | Turbidity (Initially doped beverage) [3, 17]: 2.72 NTU | Turbidity (six weeks after doping) [3, 17]: 2.99 NTU | solubility in water [4]: at least 200 g/L | stability / hydrolysis [5]: very stable and does not hydrolyze under normal conditions | bioavailability as source of vitamin E [6]: readily bioavailable source of vitamin E

Where two headings read alike, the source gives them in different places.
